For assay [1], the target named is combinatorial H3K4me3+H3 poly-acetylated dNuc. The experiment in a line: dCypher-Alpha bead proximity titration on dNucs.
The target is the same in assay [2]. The experiment in a line: CUT&RUN, recovery of DNA-barcoded spike-in dNucs.
The target of the next assay is H3K4me3 dNuc. The experiment in a line: dCypher-Alpha bead proximity titration on dNucs; apparent EC50.
The target of assay [3] is combinatorial H3K4me3+H3 poly-acetylated dNuc. The description is as above.
For assay [4], the target named is poly-acetylated H3 (H3K4,9,14,18ac) dNuc. Described as above.
Assay [5] addresses H3K9me3 dNuc. The experiment in a line: dCypher assay on dNuc substrates.
For assay [6], the target named is H3K9me3 dNuc. The experiment in a line: CUT&RUN, recovery of DNA-barcoded spike-in dNucs.

These results are taken from patent US20250164503A1.

What is called EC50 is the concentration that produces a half-maximal response. In the case of GST-BPTF (PHD-BD) (designed binder), in assay [1], the fold improvement in binding on the combinatorial dNuc vs. the singly-modified dNucs was determined as 25 fold. Further, the fold preference for the combinatorial PTM over either single PTM individually in assay [2] amounted to 8 fold. Moreover, the EC50 in the assay with H3K4me3 dNuc is 77.8 nM; in assay [3] it was 2.7 nM; in assay [4] it was 61 nM.

Turning to MBP-1xCBX1 (designed binder), the relative binding specificity toward H3K9me3 over H3K9me2 in the assay with H3K9me3 dNuc [5] was determined as 10 fold.

Take MBP-2xCBX1 (designed binder): the fold increase in H3K9me3 binding compared to the single reader domain in the assay with H3K9me3 dNuc [5] was more than 100 fold.

Regarding MBP-3xCBX1 (designed binder), in the assay with H3K9me3 dNuc [5], the fold improvement of on-target binding activity compared to the single reader domain is more than 100 fold and the relative binding specificity toward H3K9me3 over H3K9me2 was more than 100 fold. In the assay with H3K9me3 dNuc [6], this substance yielded a fold preference for its target among H3K9 me0/me1/me2/me3 spike-in dNucs of more than 10 fold.
